Reference: patent publication US6552010B1, “Treatment of SLE with dehydroepiandrosterone” (Genelabs Technologies, Inc., priority 1999, dated 2003)

Conditions: in vivo

Compound	Therapeutic activity
C[C@]12CC[C@H](O)CC1=CC[C@@H]1[C@@H]2CC[C@]2(C)C(=O)CC[C@@H]12 [DHEA form II, dehydroepiandrosterone]	good therapeutic activity
C[C@]12CC[C@H](O)CC1=CC[C@@H]1[C@@H]2CC[C@]2(C)C(=O)CC[C@@H]12 [DHEA form I, dehydroepiandrosterone]	good therapeutic activity
